# Data from PubChem BioAssay AID651719 (The Scripps Research Institute Molecular Screening Center, 2012).
# Sequences of proteins named here, by UniProt entry; tags and fusion partners are left off. Residues count along the entry.
# UniProt O60755, 1-299 limits assumed: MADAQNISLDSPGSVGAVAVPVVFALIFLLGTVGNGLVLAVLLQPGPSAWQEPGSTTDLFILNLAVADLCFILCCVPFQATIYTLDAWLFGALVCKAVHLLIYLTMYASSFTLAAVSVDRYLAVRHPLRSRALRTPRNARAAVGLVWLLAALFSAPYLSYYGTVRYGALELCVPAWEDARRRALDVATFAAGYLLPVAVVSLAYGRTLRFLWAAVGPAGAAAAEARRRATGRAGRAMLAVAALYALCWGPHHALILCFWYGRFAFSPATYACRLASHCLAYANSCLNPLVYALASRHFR
# This is a selection; strong and weak results do not stand in their true shares. Active and inactive are the calls of the source.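 Rule for the calls: active = inhibition above the screen-wide average plus 3 SD (cut at about 13% in these data); inactive = the rest.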
# Molecular target: Galanin receptor type 3 (Homo sapiens) (UniProt O60755)
# Test: GalR3 antagonists in HEK293 cells, primary screen, cell-based, fluorescence readout (AID 651719);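 note: forskolin and galanin both at EC90 stimulate the cells; cAMP rise reported by CNG channel membrane potential dye signal; 0% = forskolin plus galanin with DMSO and 100% = forskolin alone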
# Settings: HEK293 GalR3-CNG cAMP membrane potential fluorescence; at 3 µM; stronger effect = higher value; galR3 body fused to GalR1 C-terminus
row,Structure (SMILES),inhibition
1,O=C(NCC1(N2CCCCC2)CCCCC1)c1ccc(Cl)nc1,inactive: 2.03%
2,O=c1[nH]c2ccccc2n1C1CCN(C(c2ccccc2OC(F)(F)F)c2nnnn2C2CCCCC2)CC1 (stereo not drawn),inactive: -5.56%
3,Cc1cc(C)cc(N(C(=O)c2ccccc2)C2CCN(C(=O)OC(C)(C)C)CC2)c1,inactive: -12.3%
4,O=C(NCC1(N2CCOCC2)CCCCC1)c1cc2ccccc2o1,inactive: -2.65%
5,N#CC1(Nc2ccccc2)CCN(Cc2ccccc2)CC1,inactive: -5.25%
6,O=C(NCC1(N2CCCCC2)CCCCC1)c1ccc(Cl)s1,inactive: -0.07%
7,O=c1[nH]c2ccccc2n1C1CCN(C(c2cc3ccccc3o2)c2nnnn2C2CCCCC2)CC1 (stereo not drawn),inactive: -6.06%
8,O=C(OC1CN2CCC1CC2)C1c2ccccc2Oc2ccccc21 (stereo not drawn),inactive: -7.22%
9,COc1ccc(Cl)cc1C(=O)NCC1(N2CCOCC2)CCCCC1,inactive: -3.38%
10,CCOC(=O)N1CCC(Nc2ccc(OC)cc2)CC1,inactive: -4.49%
11,CCCCn1nnnc1C(c1ccc(OC)cc1)N1CCC(n2c(=O)[nH]c3ccccc32)CC1 (stereo not drawn),inactive: -5.73%
12,COc1ccc(C(=O)NCC2(N3CCCCC3)CCCCC2)cc1,inactive: -8.09%
13,CC(C)(C)OC(=O)N1CCC(N(C(=O)c2ccccc2)c2ccc(F)cc2)CC1,inactive: -11.8%
14,COc1ccc(C(=O)NCC2(N3CCCCC3)CCCCC2)c(OC)c1OC,inactive: -3.18%
15,CCC(c1nnnn1C1CCCC1)N1CCC(n2c(=O)[nH]c3ccccc32)CC1 (stereo not drawn),inactive: -4.99%
16,O=C(NCC1(N2CCCCC2)CCCCC1)c1ccc(=O)[nH]c1,inactive: 5.23%
17,O=C(NCC1(N2CCCCC2)CCCCC1)c1cccs1,inactive: 4.79%
18,CCCCn1nnnc1C(CC)N1CCC(n2c(=O)[nH]c3ccccc32)CC1 (stereo not drawn),inactive: -2.07%
19,CCCCn1nnnc1C(c1cccs1)N1CCC(n2c(=O)[nH]c3ccccc32)CC1 (stereo not drawn),inactive: -0.2%
20,CSc1ccccc1C(=O)NCC1(N2CCCCC2)CCCCC1,inactive: -9.23%
21,Cc1cccc(NC2(C#N)CCN(Cc3ccccc3)CC2)c1,inactive: 3.04%
22,O=c1[nH]c2ccccc2n1C1CCN(C(c2ccccc2)c2nnnn2C2CCCCC2)CC1 (stereo not drawn),inactive: -5.78%

row,Structure (SMILES),inhibition
1,CCOC(=O)N1CCC(Nc2cccc(C)c2)CC1,inactive: -7.71%
2,COc1cc(C(=O)NCC2(N(C)C)CCCCC2)ccc1OC(F)F,inactive: -7.79%
3,O=c1[nH]c2ccccc2n1C1CCN(C(c2cccc3ccccc23)c2nnnn2C2CCCC2)CC1 (stereo not drawn),inactive: -7.53%
4,CC(C)(C)n1nnnc1C(c1ccccc1)N1CCC(n2c(=O)[nH]c3ccccc32)CC1 (stereo not drawn),inactive: -8.37%
5,O=C1CCN(Cc2ccccc2)CC1,inactive: -6.39%
6,CCOc1ccc(C)cc1CN(CCCl)CCCl,inactive: -0.14%
7,CCCCOc1ccc(C(=O)NCC2(N3CCOCC3)CCCCC2)cc1,inactive: 0.17%
8,O=P1(N(CCCl)CCCl)SCCCS1,inactive: -4.23%
9,CCCCn1nnnc1C(c1cc2ccccc2o1)N1CCC(n2c(=O)[nH]c3ccccc32)CC1 (stereo not drawn),inactive: -6.82%
10,O=C(NCC1(N2CCCCC2)CCCCC1)c1ccc(F)cc1,inactive: -7.15%
11,CCOC(=O)N1CCC(Nc2ccc(F)cc2)CC1,inactive: -8.21%
12,COc1ccc(NC2CCN(CCc3ccccc3)CC2)c(OC)c1,inactive: -5.19%
13,O=C(NCC1(N2CCCCC2)CCCCC1)c1cccc(C(F)(F)F)c1,inactive: -8.48%
14,O=C(NCC1(N2CCOCC2)CCCCC1)c1cc(=O)[nH]c2ccccc12,inactive: 4.42%
15,COc1cc(C(=O)NCC2(N3CCCCC3)CCCCC2)ccc1OC(F)F,inactive: -8.83%
16,CC(C)c1ccc(C(=O)NCC2(N3CCOCC3)CCCCC2)cc1,inactive: 6.44%
17,COc1ccc(NC2CCN(C(=O)OC(C)(C)C)CC2)cc1,inactive: 0.26%
18,CN1CCN(CCOC(=O)C(O)(c2ccccc2)c2ccccc2)CC1,inactive: -0.09%
19,CCCCn1nnnc1C(c1cccc2ccccc12)N1CCC(n2c(=O)[nH]c3ccccc32)CC1 (stereo not drawn),inactive: -7.33%
20,CC(C)(C)n1nnnc1C(c1ccccc1OC(F)(F)F)N1CCC(n2c(=O)[nH]c3ccccc32)CC1 (stereo not drawn),inactive: -6.3%
21,O=C(NCC1(N2CCCCC2)CCCCC1)c1ccc(OC(F)F)cc1,inactive: 0.98%
22,CCN1CCC(Nc2ccc(Cl)cc2)CC1,inactive: 0.43%

row,Structure (SMILES),inhibition
1,O=c1[nH]c2ccccc2n1C1CCN(C(c2ccccc2OC(F)(F)F)c2nnnn2C2CCCC2)CC1 (stereo not drawn),inactive: 3.49%
2,N#CC1(Nc2ccccc2)CCN(CCc2ccccc2)CC1,inactive: -1.31%
3,CSc1ccc(C(=O)NCC2(N3CCOCC3)CCCCC2)cc1,inactive: -1.25%
4,O=C(NCC1(N2CCCCC2)CCCCC1)c1cccc([N+](=O)[O-])c1,inactive: 4.73%
5,CN1CCC(Nc2cccc(F)c2)CC1,inactive: -6.12%
6,O=C(NCC1(N2CCCCC2)CCCCC1)c1cncc(Br)c1,inactive: 4.26%
7,COc1ccc(C(c2nnnn2C2CCCC2)N2CCC(n3c(=O)[nH]c4ccccc43)CC2)cc1 (stereo not drawn),inactive: -6.07%
8,Cc1ccc(C(=O)NCC2(N(C)C)CCCCC2)o1,inactive: -3.09%
9,CCCOc1ccc(C(=O)NCC2(N(C)C)CCCCC2)cc1OC,inactive: 1.2%
10,CC(C)c1ccc(NC2CCN(C(=O)OC(C)(C)C)CC2)cc1,inactive: -3.59%
11,COc1ccc(CN(CCCl)CCCl)cc1Cl,inactive: -1.92%
12,CN(C)c1cccc(C(=O)NCC2(N3CCCCC3)CCCCC2)c1,inactive: -7.01%
13,COc1cc(OC)c(C(=O)NCC2(N(C)C)CCCCC2)cc1OC,inactive: -12.3%
14,CCC(c1nnnn1C(C)(C)C)N1CCC(n2c(=O)[nH]c3ccccc32)CC1 (stereo not drawn),inactive: -4.96%
15,O=C(NCC1(N2CCOCC2)CCCCC1)c1cc(F)c(F)cc1Cl,inactive: -4.99%
16,CCCCn1nnnc1C(c1ccnc2ccccc12)N1CCC(n2c(=O)[nH]c3ccccc32)CC1 (stereo not drawn),inactive: -5.94%
17,CCOC(=O)N1CCC(Nc2ccc(C)cc2)CC1,inactive: -10.5%
18,COc1cccc(C(c2nnnn2C(C)(C)C)N2CCC(n3c(=O)[nH]c4ccccc43)CC2)c1OC (stereo not drawn),inactive: -4.23%
19,N/C(=N\O)c1c(N)no[n+]1[O-],inactive: 2.43%
20,O=C(OC1CN2CCC1CC2)C1c2ccccc2C=Cc2ccccc21 (stereo not drawn),inactive: -0.95%
21,O=c1[nH]c2ccccc2n1C1CCN(C(c2cccs2)c2nnnn2C2CCCC2)CC1 (stereo not drawn),inactive: -6.18%
22,CCCCn1nnnc1C(c1cccc(OC)c1OC)N1CCC(n2c(=O)[nH]c3ccccc32)CC1 (stereo not drawn),inactive: -5.31%

row,Structure (SMILES),inhibition
1,CCCCn1nnnc1C(c1ccccc1)N1CCC(n2c(=O)[nH]c3ccccc32)CC1 (stereo not drawn),inactive: -4.79%
2,COc1cc(C(=O)NCC2(N3CCOCC3)CCCCC2)cc(OC)c1C,inactive: -1.83%
3,O=C(NCC1(N2CCOCC2)CCCCC1)c1cc(Br)ccc1Cl,inactive: -4.13%
4,O=c1[nH]c2ccccc2n1C1CCN(C(c2cccs2)c2nnnn2C2CCCCC2)CC1 (stereo not drawn),inactive: -0.97%
5,COc1ccc(C(=O)NCC2(N3CCOCC3)CCCCC2)cc1OC,inactive: -1.51%
6,O=c1[nH]c2ccccc2n1C1CCN(C(c2ccnc3ccccc23)c2nnnn2C2CCCC2)CC1 (stereo not drawn),inactive: -4.11%
7,CN(C)C1(CNC(=O)c2cccc(C#N)c2)CCCCC1,inactive: -7.21%
8,C/C(N)=N\P(=O)(Oc1ccccc1)Oc1ccccc1,inactive: -6.11%
9,c1ccc(CN2CCC(Nc3ccccc3)CC2)cc1,inactive: -1.41%
10,Cc1cc(N(CCCl)CCCl)ccc1C=O,inactive: -2.58%
11,O=c1[nH]c2ccccc2n1C1CCN(C(c2ccccc2)c2nnnn2C2CCCC2)CC1 (stereo not drawn),inactive: -6.31%
12,CCCN1CCC(Nc2cc(OC)cc(OC)c2)CC1,inactive: -8.34%
13,CC(C)(C)n1nnnc1C(c1cccc2ccccc12)N1CCC(n2c(=O)[nH]c3ccccc32)CC1 (stereo not drawn),inactive: -4.89%
14,N#Cc1ccc(C(=O)NCC2(N3CCCCC3)CCCCC2)cc1,inactive: -3.95%
15,CC(C)(C)OC(=O)N1CCC(N(C(=O)c2ccccc2)c2ccc(Cl)cc2)CC1,inactive: -13.8%
16,Cc1ccccc1NC1(C#N)CCN(Cc2ccccc2)CC1,inactive: 3.03%
17,CCN1CCC(Nc2cccc(F)c2)CC1,inactive: -1.99%
18,COc1ccc(C(c2nnnn2C2CCCCC2)N2CCC(n3c(=O)[nH]c4ccccc43)CC2)cc1 (stereo not drawn),inactive: -1.9%
19,CC(C)(C)n1nnnc1C(c1ccnc2ccccc12)N1CCC(n2c(=O)[nH]c3ccccc32)CC1 (stereo not drawn),inactive: 0.53%
20,O=C(NCC1(N2CCCCC2)CCCCC1)c1ccco1,inactive: -1.14%
21,CN(C)c1ccc(C(=O)NCC2(N3CCCCC3)CCCCC2)cc1,inactive: -1.1%
22,Cn1c(=O)[nH]cc(N(CCCl)CCCl)c1=O,inactive: 2.98%

row,Structure (SMILES),inhibition
1,COc1cccc(C(c2nnnn2C2CCCCC2)N2CCC(n3c(=O)[nH]c4ccccc43)CC2)c1OC (stereo not drawn),inactive: -5.92%
2,CC(=O)N(c1ccccc1)C1CCNCC1,inactive: -3.86%
3,CCC(c1nnnn1C1CCCCC1)N1CCC(n2c(=O)[nH]c3ccccc32)CC1 (stereo not drawn),inactive: 3.83%
4,COc1cc(OC)cc(C(=O)NCC2(N3CCCCC3)CCCCC2)c1,inactive: -11.3%
5,O=c1[nH]c2ccccc2n1C1CCN(C(c2ccnc3ccccc23)c2nnnn2C2CCCCC2)CC1 (stereo not drawn),inactive: -3.58%
6,Cc1ccc(C(=O)NCC2(N3CCCCC3)CCCCC2)o1,inactive: -2.76%
7,Fc1ccccc1NC1CCN(Cc2ccccc2)CC1,inactive: -0.86%
8,Cc1ccc(NC2(C#N)CCN(Cc3ccccc3)CC2)cc1,inactive: -4.53%
9,COc1cccc(C(=O)N(c2cc(C)cc(C)c2)C2CCN(C(=O)OC(C)(C)C)CC2)c1,inactive: -11.8%
10,COc1cccc(C(c2nnnn2C2CCCC2)N2CCC(n3c(=O)[nH]c4ccccc43)CC2)c1OC (stereo not drawn),inactive: -3.88%
11,COc1cc(OC)cc(C(=O)NCC2(N3CCOCC3)CCCCC2)c1,inactive: -2.96%
12,CCC(CO)(C(=O)OC1CN2CCC1CC2)c1ccccc1 (stereo not drawn),inactive: -2.09%
13,CN1CCC(Nc2ccc(Cl)cc2)CC1,inactive: -10.7%
14,CCOc1ncccc1C(=O)NCC1(N2CCOCC2)CCCCC1,inactive: -3.29%
15,CN1CCC(Nc2ccc(F)c(Cl)c2)CC1,inactive: -12.9%
16,CC(C)(C)OC(=O)N1CCC(Nc2ccccc2)CC1,inactive: 4.87%
17,NN(c1ccccc1)C1CCN(CCc2ccccc2)CC1,inactive: -4.97%
18,O=C(O)C1(Nc2ccccc2)CCN(Cc2ccccc2)CC1,inactive: -6.82%
19,O=c1[nH]c2ccccc2n1C1CCN(C(c2cc3ccccc3o2)c2nnnn2C2CCCC2)CC1 (stereo not drawn),inactive: -3.82%
20,CCCOc1ccc(C(=O)NCC2(N(C)C)CCCCC2)cc1,inactive: -6.92%
